Values of other authors, collected in patent US8221566B1.
Some compounds may have been tested in ways that are not shown here.

Legend:
[1] = tested on: Saccharomyces diastaticus; details: aqueous, in 5 min; cited from earlier work
water lines = details: aqueous; cited from earlier work

hydrogen fluoride
Concentration of aq. HF that destroys the organism [1]: 200 ppm | Concentration of aq. HF that sterilizes water lines (water lines): 1-100 ppm
